Molecular target: PI3Kδ (Homo sapiens (Human), UniProt O00329)
Test: PI3Kδ enzymatic inhibitory activity IC50 assay (Caliper Reader)
Assay type: biochemical
Protocol: Biological Effect Example 1 PI3Kα and PI3Kδ Enzymatic Inhibitory Activity IC50 Assay • 1. Buffer preparation: 50 mM HEPES, pH 7.5, 3 mM MgCl2, 1 mM EGTA, 100 mM NaCl, 0.03% CHAPS. • 2. Compound was formulated in 100% DMSO in a concentration gradient, deposited to a 384-well plate to make final DMSO concentration of 1%. • 3. PI3Kα and PI3Kδ enzymes were diluted to be the optimum concentration with the following buffer: 50 mM HEPES, pH 7.5, 3 mM MgCl2, 1 mM EGTA, 100 mM NaCl, 0.03% CHAPS, 2 mM DTT. Transferred to a 384-well plate and incubated with the compound for a certain time. • 4. Substrate was diluted to an optimum concentration with following buffer: 50 mM HEPES, pH 7.5, 3 mM MgCl2, 1 mM EGTA, 100 mM NaCl, 0.03% CHAPS, 2 mM DTT, 50 μM PIP2, Km ATP. The reaction was performed in a 384-well plate for 1 h at room temperature for PI3Kα and 2 hrs at room temperature for PI3Kδ. • 5. Read the conversion rate using Caliper Reader, and calculate the inhibition rate as the average of two tests.

Amino acid sequences for entries named in this document (tags omitted). A change or cut given only in a name is not applied to a line headed by its entry.
UniProt O00329: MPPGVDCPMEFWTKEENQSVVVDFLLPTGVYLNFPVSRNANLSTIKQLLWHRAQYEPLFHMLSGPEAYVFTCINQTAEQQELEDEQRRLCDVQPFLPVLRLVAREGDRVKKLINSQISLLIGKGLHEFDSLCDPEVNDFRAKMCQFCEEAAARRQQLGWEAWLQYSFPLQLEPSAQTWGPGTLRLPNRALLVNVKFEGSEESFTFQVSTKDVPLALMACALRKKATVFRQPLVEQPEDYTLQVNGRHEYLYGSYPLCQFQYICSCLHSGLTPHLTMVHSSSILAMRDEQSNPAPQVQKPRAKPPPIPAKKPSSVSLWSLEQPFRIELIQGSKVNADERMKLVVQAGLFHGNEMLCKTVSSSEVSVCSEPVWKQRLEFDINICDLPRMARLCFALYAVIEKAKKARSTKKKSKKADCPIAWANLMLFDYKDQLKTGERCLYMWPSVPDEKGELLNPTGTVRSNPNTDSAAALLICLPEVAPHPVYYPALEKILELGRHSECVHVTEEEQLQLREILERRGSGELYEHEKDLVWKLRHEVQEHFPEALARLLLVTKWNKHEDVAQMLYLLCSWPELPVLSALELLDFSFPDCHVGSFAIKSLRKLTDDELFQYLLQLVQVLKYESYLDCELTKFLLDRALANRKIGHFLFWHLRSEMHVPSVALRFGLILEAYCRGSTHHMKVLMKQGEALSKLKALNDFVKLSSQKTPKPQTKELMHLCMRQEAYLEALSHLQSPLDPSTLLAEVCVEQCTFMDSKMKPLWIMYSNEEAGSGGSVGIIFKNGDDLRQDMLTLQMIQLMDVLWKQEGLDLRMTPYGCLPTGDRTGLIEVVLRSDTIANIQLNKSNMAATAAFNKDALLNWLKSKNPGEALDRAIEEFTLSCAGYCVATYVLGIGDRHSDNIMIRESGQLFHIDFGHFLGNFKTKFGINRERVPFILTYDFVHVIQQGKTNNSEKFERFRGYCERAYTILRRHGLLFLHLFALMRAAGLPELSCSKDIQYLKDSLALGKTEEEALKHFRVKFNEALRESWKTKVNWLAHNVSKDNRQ

IC50: 137 nM
SMILES: CN(Cc1csc2c(-c3cnc(N)nc3)nc(N3CCOCC3)nc12)C(=O)CO [Compound 32]
